In the experiment the target is T1, human neutrophils (PMN) (Homo sapiens, UniProt P21730).
T1 sequence (P21730 1-350): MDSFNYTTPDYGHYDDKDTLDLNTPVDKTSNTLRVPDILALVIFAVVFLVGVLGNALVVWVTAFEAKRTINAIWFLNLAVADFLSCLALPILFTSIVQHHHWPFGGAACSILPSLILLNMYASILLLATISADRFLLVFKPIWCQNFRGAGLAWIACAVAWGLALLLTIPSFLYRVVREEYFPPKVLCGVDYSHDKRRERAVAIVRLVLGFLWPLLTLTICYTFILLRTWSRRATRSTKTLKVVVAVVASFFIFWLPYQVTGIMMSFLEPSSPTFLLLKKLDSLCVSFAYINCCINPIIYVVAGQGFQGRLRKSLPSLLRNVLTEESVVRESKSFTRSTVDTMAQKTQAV
Format: cell-based. Here is the method:
The release of glucuronidase from human neutrophils was determined as described by Schroder et al. (1987), J. Immunol., 139: 3474-3483. Briefly, human neutrophils were pretreated with cytochalasin B (5 μg/ml, 10 min, 37° C.). The cells (10^6) were incubated in the presence of stimulants for 60 minutes at 37° C. in a final volume of 200 μl and then centrifuged. The supernatant was collected and 50 μl were incubated with 50 μl of 0.01 M P-nitrophenyl-β-D-glucuronide (in 0.1 M sodium acetate at pH 4 for 18 h) as triplicate determinations in 96-well microtiter plates (Corning). The reaction was stopped by addition of 100 μl of 0.4 M gly buffer at pH 10. The reaction developed color that was read at 405 nm in a Titertec Multiscan (MCC/340) ELISA reader. The β-glucuronidase released was expressed as the percentage of total enzyme in the cell that could be released by addition of 0.2% Triton X-100 (Pierce).

Each structure is given as a SMILES string. pEC50: −log10 of the molar value.

Our source for the EC50 values is US6465614B1, “High-affinity response-selective C-terminal analogs of C5a anaphylatoxin” (priority 1994, dated 2002).

By pEC50 is commonly meant the negative decadic logarithm of the EC50, by convention in mol/L. Low readings indicate a large EC50, high ones a small EC50.

In turn, `CC[C@H](C)[C@H](N)C(=O)N[C@@H](CO)C(=O)N[C@@H](Cc1ccccc1)C(=O)N[C@@H](CCCCN)C(=O)N[C@@H](CC(=O)O)C(=O)N[C@@H](CCSC)C(=O)N[C@@H](CCC(N)=O)C(=O)N[C@@H](CC(C)C)C(=O)NCC(=O)N[C@@H](CCCNC(=N)N)C(=O)O` [peptide 1] had a pEC50 of 4.17.
